Assay results from patent US20200079766A1, “MONOCYCLIC OGA INHIBITOR COMPOUNDS” (Janssen Pharmaceutica NV, priority 2016, published 2020).

The chains behind the UniProt entries cited, without tags or fusion partners.
UniProt O60502, whole entry: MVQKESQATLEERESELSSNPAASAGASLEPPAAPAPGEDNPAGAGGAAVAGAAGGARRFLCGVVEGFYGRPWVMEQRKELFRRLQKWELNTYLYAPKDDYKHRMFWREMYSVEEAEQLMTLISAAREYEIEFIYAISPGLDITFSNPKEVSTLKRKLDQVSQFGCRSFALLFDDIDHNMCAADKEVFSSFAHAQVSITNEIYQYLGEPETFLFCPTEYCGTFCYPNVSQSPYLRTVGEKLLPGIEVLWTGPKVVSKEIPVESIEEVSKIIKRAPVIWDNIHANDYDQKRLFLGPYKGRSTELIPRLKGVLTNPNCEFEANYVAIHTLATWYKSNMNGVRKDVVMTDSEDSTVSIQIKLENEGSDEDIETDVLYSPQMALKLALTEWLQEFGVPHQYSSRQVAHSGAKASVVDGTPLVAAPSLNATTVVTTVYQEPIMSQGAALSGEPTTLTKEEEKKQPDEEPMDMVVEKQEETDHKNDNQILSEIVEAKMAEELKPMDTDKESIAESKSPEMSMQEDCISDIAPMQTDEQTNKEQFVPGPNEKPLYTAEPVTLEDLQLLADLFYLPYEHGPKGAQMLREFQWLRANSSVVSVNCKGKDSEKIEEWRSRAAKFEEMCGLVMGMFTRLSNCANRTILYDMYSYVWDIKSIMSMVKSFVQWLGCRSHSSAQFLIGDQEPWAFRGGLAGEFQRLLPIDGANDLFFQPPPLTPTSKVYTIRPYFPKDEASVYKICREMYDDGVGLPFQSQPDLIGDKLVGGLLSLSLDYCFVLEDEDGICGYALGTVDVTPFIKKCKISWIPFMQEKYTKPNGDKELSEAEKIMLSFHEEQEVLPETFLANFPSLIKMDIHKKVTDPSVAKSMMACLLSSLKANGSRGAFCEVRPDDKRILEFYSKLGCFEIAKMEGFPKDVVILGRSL

Tests used:
[1] = target: recombinant human Meningioma Expressed Antigen 5 (MGEA5), also referred to as O-GlcNAcase (OGA) (Homo sapiens, UniProt O60502); experiment: OGA biochemical assay: inhibition of FM-GlcNAc hydrolysis, fluorescence; protocol A (10 nM OGA, 1 h) or protocol B (2 nM OGA, 6 h); conditions: Enzymatic protocol B (2 nM OGA, 6 h)
Text: The assay is based on the inhibition of the hydrolysis of fluorescein mono-3-D-N-Acetyl-Glucosamine (FM-GlcNAc) (Mariappa et al. 2015, Biochem J 470:255) by the recombinant human Meningioma Expressed Antigen 5 (MGEA5), also referred to as O-GlcNAcase (OGA). The hydrolysis FM-GlcNAc (Marker Gene technologies, cat # M1485) results in the formation of ß-D-N-glucosamineacetate and fluorescein. The fluorescence of the latter can be measured at excitation wavelength 485 nm and emission wavelength 538 nm. An increase in enzyme activity results in an increase in fluorescence signal. Full length OGA enzyme was purchased at OriGene (cat # TP322411). The enzyme was stored in 25 mM Tris.HCl, pH 7.3, 100 mM glycine, 10% glycerol at −20° C. Thiamet G and GlcNAcStatin were tested as reference compounds (Yuzwa et al. 2008 Nature Chemical Biology 4:483; Yuzwa et al. 2012 Nature Chemical Biology 8:393). The assay was performed in 200 mM Citrate/phosphate buffer supplemented with 0.005% Tween-20. 35.6 g Na2HPO42H2O (Sigma, # C0759) were dissolved in 1 L water to obtain a 200 mM solution. 19.2 g citric acid (Merck, #1.06580) was dissolved in 1 L water to obtain a 100 mM solution. pH of the sodiumphosphate solution was adjusted with the citric acid solution to 7.2. The buffer to stop the reaction consists of a 500 mM Carbonate buffer, pH 11.0. 734 mg
FM-GlcNAc were dissolved in 5.48 mL DMSO to obtain a 250 mM solution and was stored at −20° C. OGA was used at a 10 nM (protocol A) or 2 nM (protocol B) concentration and FM-GlcNAc at a 100 uM final concentration. Dilutions were prepared in assay buffer.
50 nl of a compound dissolved in DMSO was dispensed on Black Proxiplate™ 384 Plus Assay plates (Perkin Elmer, #6008269) and 3 μl fl-OGA enzyme mix added subsequently. Plates were pre-incubated for 60 min at room temperature and then 2 μl FM-GlcNAc substrate mix added. […] Plates were briefly centrifuged for 1 min at 1000 rpm and incubate at room temperature for 1 h (10 nM OGA, protocol A) or 6 h (2 nM OGA, protocol B). To stop the reaction 5 μl STOP buffer were added and plates centrifuge again 1 min at 1000 rpm. Fluorescence was quantified in the Thermo Scientific Fluoroskan Ascent or the PerkinElmer EnVision with excitation wavelength 485 nm and emission wavelength 538 nm.
For analysis a best-fit curve is fitted by a minimum sum of squares method. From this an IC50 value and Hill coefficient was obtained. High control (no inhibitor) and low control (saturating concentrations of standard inhibitor) were used to define the minimum and maximum values.

[2] = system: OGA in HEK293 cells inducible for P301L mutant human Tau (isoform 2N4R); experiment: OGA cellular assay: immunocytochemical detection of O-GlcNAcylated proteins (CTD110.6 antibody) after 6 h incubation; conditions: for Cellular Emax (%): maximum = Thiamet G 200 uM
Protocol: HEK293 cells inducible for P301L mutant human Tau (isoform 2N4R) were established at Janssen. Thiamet-G was used for both plate validation (high control) and as reference compound (reference EC50 assay validation). OGA inhibition is evaluated through the immunocytochemical (ICC) detection of O-GlcNAcylated proteins by the use of a monoclonal antibody (CTD110.6; Cell Signaling, #9875) detecting O-GlcNAcylated residues as previoulsy described (Dorfmueller et al. 2010 Chemistry & biology, 17:1250). Inhibition of OGA will result in an increase of O-GlcNAcylated protein levels resulting in an increased signal in the experiment. Cell nuclei are stained with Hoechst to give a cell culture quality control and a rough estimate of immediate compounds toxicity, if any. ICC pictures are imaged with a Perkin Elmer Opera Phenix plate microscope and quantified with the provided software Perkin Elmer Harmony 4.1.
Cells were propagated in DMEM high Glucose (Sigma, # D5796) following standard procedures. 2 days before the cell assay cells are split, counted and seeded in Poly-D-Lysine (PDL) coated 96-wells (Greiner, #655946) plate at a cell density of 12,000 cells per cm^2 (4,000 cells per well) in 100 μl of Assay Medium (Low Glucose medium is used to reduce basal levels of GlcNAcylation) (Park et al. 2014 The Journal of biological chemistry 289:13519). At the day of compound test medium from assay plates was removed and replenished with 90 μl of fresh Assay Medium. 10 μl of compounds at a 10 fold final concentration were added to the wells. Plates were centrifuged shortly before incubation in the cell incubator for 6 hours. DMSO concentration was set to 0.2%. Medium is discarded by applying vacuum. For staining of cells medium was removed and cells washed once with 100 μl D-PBS (Sigma, # D8537). From next step onwards unless other stated assay volume was always 50 μl and incubation was performed without agitation and at room temperature. Cells were fixed in 50 μl of a 4% paraformaldehyde (PFA, Alpha aesar, #043368) PBS solution for 15 minutes at room temperature. […] Before analysis samples were washed 2 times manually for 5 minutes in ICC base buffer.
Imaging is performed using Perkin Elmer Phenix Opera using a water 20× objective and recording 9 fields per well. Intensity readout at 488 nm is used as a measure of O-GlcNAcylation level of total proteins in wells. To assess potential toxicity of compounds nuclei were counted using the Hoechst staining. IC50-values are calculated using parametric non-linear regression model fitting. As a maximum inhibition Thiamet G at a 200 uM concentration is present on each plate. In addition, a concentration response of Thiamet G is calculated on each plate.

Row | Compound | Enzymatic Emax (%) ([1]; tested form: dihydrochloride) | Enzymatic hOGA; pIC50 ([1]; tested form: dihydrochloride) | Cellular hOGA; pEC50 [2] | Cellular Emax (%) [2] [%] | Enzymatic Emax (%) [1] [%] | Enzymatic hOGA; pIC50 [1]
1 | Cc1cc(C[C@H]2CCN(Cc3nc4ccccc4n3C)C2)cc(C)n1 | 26 | <5 | – | – | – | –
2 | CC(=O)Nc1ncc(CN2CCC[C@H](COc3cc(C)nc(C)c3)C2)s1 | – | – | 8.61 | 103.6 | 102.1 | 8.36
3 | CC(=O)Nc1ncc(CN2CC[C@H](Cc3nc(C)cnc3C)C2)s1 | – | – | 7.22 | 108.9 | 101.7 | 8.32
4 | Cc1cc(C[C@H]2CCN(Cc3cc4ccccc4n3C)C2)cc(C)n1 | 11.7 | <5 | – | – | – | –
